Values of other authors as cited in patent publication US20240377385A1, “METHODS AND COMPOSITIONS OF MATTER FOR TREATING CANCER AND PREDICTING RESPONSE TO THERAPY” (ICCA INC., priority 2023, published 2024).

Test system: metastatic colorectal cancer
Settings: cetuximab added to a protocol of bevacizumab and chemotherapy; cited from earlier work

cetuximab
survival: decreased survival
